Measured values taken from ChEMBL document CHEMBL2417388, “Design and synthesis of (4E)-4-(4-substitutedbenzylideneamino)-3-substituted-2,3-dihydro-2-thioxothiazole-5-carbonitrile as novel A2A receptor antagonists” (Bioorg Med Chem, 2013).

System: HEK293
Experiment: Selectivity ratio of Ki for human A1 receptor expressed in HEK293 cell membranes to Ki for human A2A receptor expressed in HEK293 cell membranes
Type: cell-based

With `N#Cc1sc(=S)n(-c2ccccc2)c1/N=C/c1ccc(Br)cc1` the Ratio Ki was 44300.
